What was measured:
[1] = system: haloalkane dehalogenases DmbA, DmbB, DmbC, DhlA, DhaA, DrbA, LinB, DhmA, DbjA and DbeA; settings: with DmbA, reaction directly on the chiral carbon
[2] = biological target: haloalkane dehalogenase DbjA (Bradyrhizobium diazoefficiens, UniProt P59337); test: Chiral recognition (E-value), hydrolytic dehalogenation of racemic substrates; assay type: biochemical, Bradyrhizobium japonicum USDA110; settings: racemic substrate; n.d. = not detected (activity < 0.2 nM · s^−1 · mg^−1 of enzyme)
[3] = biological target: haloalkane dehalogenase LinB (Sphingobium indicum, UniProt D4Z2G1); test: as above; assay type: biochemical, Sphingomonas paucimobilis UT26; settings: racemic substrate; n.d. = not detected (activity < 0.2 nM · s^−1 · mg^−1 of enzyme)
[4] = biological target: haloalkane dehalogenase DhaA (Rhodococcus rhodochrous, UniProt P0A3G2); test: as above; assay type: biochemical, Rhodococcus rhodochrous NCIMB 13064; settings: racemic substrate; n.d. = not detected (activity < 0.2 nM · s^−1 · mg^−1 of enzyme)
[5] = biological target: haloalkane dehalogenase DhlA (Xanthobacter autotrophicus, UniProt P22643); test: as above; assay type: biochemical, Xanthobacter autotrophicus GJ10; settings: racemic substrate; n.d. = not detected (activity < 0.2 nM · s^−1 · mg^−1 of enzyme)

Protein sequences, listed by entry. Tags and fused reporters are not part of them. Lines headed by an entry give the natural chain unless they say otherwise; changes in a name come on top.
UniProt P59337: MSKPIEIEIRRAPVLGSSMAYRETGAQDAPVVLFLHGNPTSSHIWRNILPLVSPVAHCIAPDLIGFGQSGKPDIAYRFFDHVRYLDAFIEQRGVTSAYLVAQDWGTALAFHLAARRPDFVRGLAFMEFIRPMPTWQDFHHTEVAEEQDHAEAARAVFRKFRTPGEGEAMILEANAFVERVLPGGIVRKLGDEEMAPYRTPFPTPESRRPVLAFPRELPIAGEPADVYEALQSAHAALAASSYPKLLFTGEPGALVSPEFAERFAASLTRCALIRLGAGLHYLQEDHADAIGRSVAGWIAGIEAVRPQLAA
UniProt D4Z2G1: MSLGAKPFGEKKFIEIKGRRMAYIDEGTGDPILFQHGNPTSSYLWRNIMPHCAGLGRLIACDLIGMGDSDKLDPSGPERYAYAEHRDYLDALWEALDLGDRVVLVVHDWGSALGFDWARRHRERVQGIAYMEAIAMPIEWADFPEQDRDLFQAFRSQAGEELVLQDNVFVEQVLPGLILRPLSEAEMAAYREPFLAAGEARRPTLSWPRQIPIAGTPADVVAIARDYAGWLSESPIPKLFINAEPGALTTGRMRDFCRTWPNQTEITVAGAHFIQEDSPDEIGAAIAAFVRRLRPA
UniProt P0A3G2, whole entry, looked up: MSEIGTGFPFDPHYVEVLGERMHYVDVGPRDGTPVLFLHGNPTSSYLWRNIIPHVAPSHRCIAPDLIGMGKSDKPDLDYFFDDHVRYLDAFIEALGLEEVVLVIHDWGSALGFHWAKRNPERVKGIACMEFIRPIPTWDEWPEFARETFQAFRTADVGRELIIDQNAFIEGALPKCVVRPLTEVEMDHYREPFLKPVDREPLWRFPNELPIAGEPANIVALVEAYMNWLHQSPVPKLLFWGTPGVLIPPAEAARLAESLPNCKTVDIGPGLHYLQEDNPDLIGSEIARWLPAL
UniProt P22643: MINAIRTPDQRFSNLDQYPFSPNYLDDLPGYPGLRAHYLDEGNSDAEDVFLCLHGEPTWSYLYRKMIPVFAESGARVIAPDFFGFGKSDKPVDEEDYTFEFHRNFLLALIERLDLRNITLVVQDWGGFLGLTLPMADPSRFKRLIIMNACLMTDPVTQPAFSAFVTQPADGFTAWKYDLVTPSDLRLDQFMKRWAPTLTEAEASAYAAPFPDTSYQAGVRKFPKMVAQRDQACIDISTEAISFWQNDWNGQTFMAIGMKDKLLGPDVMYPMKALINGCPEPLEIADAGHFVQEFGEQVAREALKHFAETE

Compound	enantioselectivity [1]	E-values DbjA [2]	E-values LinB [3]	E-values DhaA [4]	E-values DhlA [5]
CC(=O)C(C)Br (racemic)	excellent enantioselectivity	>200	3	>200	
epibromohydrine		1.9	1.1	1.2	1.4

— patent US7632666B2 (priority 2005, dated 2009)
